Literature values as cited in patent US20190015484A1, “NICOTINE-DEGRADING ENZYMES FOR TREATING NICOTINE ADDICTION AND NICOTINE POISONING” (priority 2015, published 2019).

Conditions: mice, endogenous; cited from earlier work

Which half-life does the source give for “mouse serum albumin: endogenous mouse serum albumin” here?
The half-life was 35 to 40 h.
